{"source": "patent US4352880A", "about": "(priority 1979, dated 1982)", "key": {"S. typhimurium TA 1535": {"test_system": "S. typhimurium TA 1535", "assay": "Effect of bacteria number on the mutagenic and toxic zones (diffusion bioassay)", "conditions": "25 μl of 1000 μg/ml per disc"}, "[1]": {"assay": "Diffusion coefficient calculated from DM^1/2 = constant", "format": "physicochemical", "conditions": "calculated from molecular weight and data for glucose"}, "S. typhimurium TA1535 [2]": {"test_system": "S. typhimurium TA1535", "assay": "Homogeneous bioassay, minimum mutagenic concentration", "conditions": "90% confidence intervals"}, "[3]": {"assay": "Spectrophotometric half-lifetime", "conditions": "minimal medium/NaCl/phosphate buffer pH=7.0/nutrient medium, 37° C."}, "S. typhimurium TA100": {"test_system": "S. typhimurium TA100", "assay": "Diffusion bioassay (reversion assay) with S. typhimurium TA100", "conditions": "for rmut (mutagenic radius zone): R 2.5 cm"}, "S. typhimurium TA1535 [4]": {"test_system": "S. typhimurium TA1535", "assay": "Diffusion bioassay for mutagenicity (mutagenic zone radius), direct mutagens", "conditions": "for rmut (radius of mutagenic zone) / Cmut (minimal mutagenic concentration) / rmut /R / Cmut /co /s: R = 2.5 cm; for rmut (radius of mutagenic zone): 21/2 days; for Cmut /co /s: from figure"}}}
{"smiles": "CN(N=O)C(=N)N[N+](=O)[O-]", "values": [{"measurement": "rtox", "setting": "S. typhimurium TA 1535; +HIS, 6.4 × 10^4 bacteria", "result": "1.40 ± 0.05", "unit": "cm"}, {"measurement": "rtox", "setting": "S. typhimurium TA 1535; +HIS, 6.4 × 10^5 bacteria", "result": "1.35 ± 0.04", "unit": "cm"}, {"measurement": "rtox", "setting": "S. typhimurium TA 1535; +HIS, 6.4 × 10^6 bacteria", "result": "1.31 ± 0.07", "unit": "cm"}, {"measurement": "rtox", "setting": "S. typhimurium TA 1535; +HIS, 6.4 × 10^7 bacteria", "result": "1.17 ± 0.04", "unit": "cm"}, {"measurement": "rtox", "setting": "S. typhimurium TA 1535; +HIS, 6.4 × 10^8 bacteria", "result": "1.1 ± 0.05", "unit": "cm"}, {"measurement": "rmut", "setting": "S. typhimurium TA 1535; -HIS, 6.4 × 10^4 bacteria", "result": "2.13 ± 0.02", "unit": "cm"}, {"measurement": "rtox", "setting": "S. typhimurium TA 1535; -HIS, 6.4 × 10^4 bacteria", "result": "1.63 ± 0.05", "unit": "cm"}, {"measurement": "rmut", "setting": "S. typhimurium TA 1535; -HIS, 6.4 × 10^5 bacteria", "result": "2.24 ± 0.04", "unit": "cm"}, {"measurement": "rtox", "setting": "S. typhimurium TA 1535; -HIS, 6.4 × 10^5 bacteria", "result": "1.53 ± 0.07", "unit": "cm"}, {"measurement": "rmut", "setting": "S. typhimurium TA 1535; -HIS, 6.4 × 10^6 bacteria", "result": "2.25 ± 0.04", "unit": "cm"}, {"measurement": "rtox", "setting": "S. typhimurium TA 1535; -HIS, 6.4 × 10^6 bacteria", "result": "1.39 ± 0.04", "unit": "cm"}, {"measurement": "rmut", "setting": "S. typhimurium TA 1535; -HIS, 6.4 × 10^7 bacteria", "result": "2.30 ± 0.04", "unit": "cm"}, {"measurement": "rtox", "setting": "S. typhimurium TA 1535; -HIS, 6.4 × 10^7 bacteria", "result": "1.22 ± 0.02", "unit": "cm"}, {"measurement": "rmut", "setting": "S. typhimurium TA 1535; -HIS, 6.4 × 10^8 bacteria", "result": "2.26 ± 0.05", "unit": "cm"}, {"measurement": "rtox", "setting": "S. typhimurium TA 1535; -HIS, 6.4 × 10^8 bacteria", "result": "1.06 ± 0.06", "unit": "cm"}, {"measurement": "Diffusion coefficient D", "setting": "[1]", "result": "7.2 × 10^-6 cm^2 /sec"}, {"measurement": "C mut^hom threshold value", "setting": "S. typhimurium TA1535 [2]", "result": "0.012 ± 0.069"}, {"measurement": ".tau.1/2 Spectroscopically", "setting": "[3]", "result": 2.25, "unit": "h"}, {"measurement": "calculated .tau.1/2 lifetime", "setting": "S. typhimurium TA100; TA100", "result": 2.20, "unit": "h"}, {"measurement": "half-lifetime .tau.1/2 from diffusion bioassay", "setting": "S. typhimurium TA100; TA 100, 21/2 days", "result": 2.2, "unit": "h"}, {"measurement": "size of mutagenic zones compared with TA1535", "setting": "S. typhimurium TA100; TA100 vs TA1535, given concentration", "result": "Essentially the same size of mutagenic zones"}, {"measurement": "rmut (mutagenic radius zone)", "setting": "S. typhimurium TA100; co 0.01 mg/ml, 21/2 days", "result": "0.92 ± 0.05", "unit": "cm"}, {"measurement": "rmut (mutagenic radius zone)", "setting": "S. typhimurium TA100; co 0.1 mg/ml, 21/2 days", "result": "1.57 ± 0.06", "unit": "cm"}, {"measurement": "rmut (mutagenic radius zone)", "setting": "S. typhimurium TA100; co 0.5 mg/ml, 21/2 days", "result": "1.95 ± 0.02", "unit": "cm"}, {"measurement": "rmut (mutagenic radius zone)", "setting": "S. typhimurium TA100; co 1 mg/ml, 21/2 days", "result": "2.16 ± 0.05", "unit": "cm"}, {"measurement": "half-lifetime .tau.1/2 from diffusion bioassay", "setting": "S. typhimurium TA1535 [4]; 21/2 days incubation, TA 1535", "result": 2.20, "unit": "h"}, {"measurement": ".tau.1/2 (Table 16)", "setting": "S. typhimurium TA1535 [4]; Table 16", "result": 2.25, "unit": "h"}, {"measurement": "rmut (radius of mutagenic zone)", "setting": "S. typhimurium TA1535 [4]; co 0.01 mg/ml", "result": "0.88 ± 0.05", "unit": "cm"}, {"measurement": "rmut (radius of mutagenic zone)", "setting": "S. typhimurium TA1535 [4]; co 0.1 mg/ml", "result": "1.55 ± 0.04", "unit": "cm"}, {"measurement": "rmut (radius of mutagenic zone)", "setting": "S. typhimurium TA1535 [4]; co 0.5 mg/ml", "result": "1.98 ± 0.02", "unit": "cm"}, {"measurement": "rmut (radius of mutagenic zone)", "setting": "S. typhimurium TA1535 [4]; co 1 mg/ml", "result": "2.22 ± 0.05", "unit": "cm"}, {"measurement": "Cmut (minimal mutagenic concentration)", "setting": "S. typhimurium TA1535 [4]; co /s 2.21 μg/ml", "result": 0.0072, "unit": "µg/mL"}, {"measurement": "rmut /R", "setting": "S. typhimurium TA1535 [4]; co /s 2.21 μg/ml", "result": "0.37 ± 0.02"}, {"measurement": "Cmut /co /s", "setting": "S. typhimurium TA1535 [4]; co /s 2.21 μg/ml", "result": "3.2 × 10^-3"}, {"measurement": "Cmut (minimal mutagenic concentration)", "setting": "S. typhimurium TA1535 [4]; co /s 22.1 μg/ml", "result": 0.0053, "unit": "µg/mL"}, {"measurement": "rmut /R", "setting": "S. typhimurium TA1535 [4]; co /s 22.1 μg/ml", "result": "0.62 ± 0.01"}, {"measurement": "Cmut /co /s", "setting": "S. typhimurium TA1535 [4]; co /s 22.1 μg/ml", "result": "2.4 × 10^-4"}, {"measurement": "Cmut (minimal mutagenic concentration)", "setting": "S. typhimurium TA1535 [4]; co /s 110.52 μg/ml", "result": 0.0045, "unit": "µg/mL"}, {"measurement": "rmut /R", "setting": "S. typhimurium TA1535 [4]; co /s 110.52 μg/ml", "result": "0.79 ± 0.01"}, {"measurement": "Cmut /co /s", "setting": "S. typhimurium TA1535 [4]; co /s 110.52 μg/ml", "result": "4.1 × 10^-5"}, {"measurement": "Cmut (minimal mutagenic concentration)", "setting": "S. typhimurium TA1535 [4]; co /s 221.04 μg/ml", "result": 0.0033, "unit": "µg/mL"}, {"measurement": "rmut /R", "setting": "S. typhimurium TA1535 [4]; co /s 221.04 μg/ml", "result": "0.88 ± 0.02"}, {"measurement": "Cmut /co /s", "setting": "S. typhimurium TA1535 [4]; co /s 221.04 μg/ml", "result": "1.5 × 10^-5"}, {"measurement": "Cmut threshold value (mean)", "setting": "S. typhimurium TA1535 [4]; diffusion method, brackets: 90% confidence intervals", "result": "0.0051(0.0033, 0.0081) μg/ml"}, {"measurement": ".tau.1/2 Parametrically", "setting": "S. typhimurium TA1535 [4]; from slope of ln co vs. rmut, experiments on plates", "result": 2.20, "unit": "h"}]}
